## Ab-14 light chain CDR variants: yeast mating affinities

Reference: Engelhart et al. 2022, doi:10.1038/s41597-022-01779-4. File: FLAb, binding data.

Target: peptide PDVDLGDISGINAS, taken from heptad repeat 2 (HR2) of SARS-CoV-2 spike.

Parent scFv Ab-14: VH joined to VL by a 15-residue (Gly4Ser)3 linker. Changes lie in the light chain CDRs alone.
VH: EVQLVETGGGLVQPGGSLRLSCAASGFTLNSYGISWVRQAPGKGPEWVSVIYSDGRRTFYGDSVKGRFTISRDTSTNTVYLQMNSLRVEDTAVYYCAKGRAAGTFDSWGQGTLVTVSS
VL: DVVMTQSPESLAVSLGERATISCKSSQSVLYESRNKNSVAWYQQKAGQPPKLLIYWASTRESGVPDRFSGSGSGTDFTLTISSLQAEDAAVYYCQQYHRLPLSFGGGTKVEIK

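The parent was found by panning a naive human phage display library on the peptide. Variants in AAYL50 differ from the parent at up to three CDR positions; double and triple changes were sampled at random. The scFvs were displayed on barcoded MATa yeast, the peptide on MATalpha yeast. Binding brings cells together so that they mate, and sequencing counts the barcode pairs among the diploids. Each replicate has its own calibration line, from reference interactions of the BCL2 family. The assay was run in three technical replicates.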

Positions count from residue 1 of the parent VL; V29G puts G in place of V.
This list gathers variants with a substitution at V39 (VL, numbered from residue 1).
Affinities are written as log10 Kd with Kd in nM; a lower number is a better binder.
"nd" means that the variant was in the library but no mating with the target was seen in that replicate; the authors take this as a sign of poor binding, and no number exists.
Background: pairings of library AAYL50 with three empty control strains gave a value in 18% of cases (median 4.19, 5th percentile 2.99). Values in that range, when seen in few replicates, are hard to tell from nonspecific mating.
In this assay the parent's reference entry averaged 0.65; its copy inside this library read 1.68.

With V29G+V39G+W56M the result was nd, nd, nd. The variant N35K+V39H+Q96P gave nd, nd, nd. With E32K+V39N+L100H the result was nd, 3.71, nd. The variant N35D+V39R+A40Y showed 0.90, 1.25, 0.84. With L30Y+V39S the result was 4.27, 5.03, 4.49. The variant V39K+R99Y showed 2.49, 2.79, 3.74. The variant S25A+V39E+Q95T gave 3.34, nd, nd. With V39C the result was nd, nd, nd. The variant K36N+S38K+V39P showed nd, nd, 3.66.

With S28Y+V39K the result was nd, nd, nd. The variant N35P+V39H+W56E gave 3.67, 3.74, 3.69. The variant V39G+W56A+S62F gave 4.63, nd, nd. For V39F+W56T, the assay gave nd, nd, nd. For S38F+V39Y+W56I, the assay gave nd, nd, nd. With S26I+V39G+L102C the result was nd, nd, nd. For R34I+V39L+E61W, the assay gave 3.09, nd, nd. The variant V39S+T59S+R99L gave nd, nd, nd. The variant Y31Q+E32S+V39K showed nd, nd, nd.

With N37D+V39Q+A57Q the result was nd, nd, nd. With S33H+V39W+H98W the result was nd, 2.67, nd. The variant S25T+V39F+L100A showed 2.66, nd, nd. For S26R+K36T+V39A, the assay gave nd, nd, nd. With L30M+V39W+S58L the result was nd, nd, nd. With S38P+V39A+H98V the result was nd, nd, nd. For V39G+Y97V+L100S, the assay gave 3.37, nd, 3.98. The variant V29C+K36E+V39H gave nd, nd, nd. The variant V29N+V39I+A57V gave 0.72, 0.76, 0.44.

The variant V39Y+A40I gave nd, nd, nd. With V29M+V39D+S62A the result was 3.89, 3.82, nd. The variant N37Q+V39Y+A40Q gave nd, nd, nd. The variant V29S+V39A+Q96V gave nd, nd, nd. With N37Q+V39Y+H98W the result was nd, 2.79, nd. With N35L+V39Y+Y97P the result was nd, nd, nd. The variant L30R+V39M+A57E gave 5.50, 3.64, nd. The variant S28E+V39H+S103F gave nd, nd, nd. For V39G+S103C, the assay gave 3.93, nd, nd.

For V39G+A40I+S103L, the assay gave nd, nd, nd.

6 of these entries, quoted again:

{"changes": "N37D+V39Q+A57Q", "replicates, log10 nM": "nd, nd, nd"}
{"changes": "S28E+V39H+S103F", "replicates, log10 nM": "nd, nd, nd"}
{"changes": "V39G+A40I+S103L", "replicates, log10 nM": "nd, nd, nd"}
{"changes": "L30R+V39M+A57E", "replicates, log10 nM": "5.50, 3.64, nd"}
{"changes": "L30M+V39W+S58L", "replicates, log10 nM": "nd, nd, nd"}
{"changes": "N37Q+V39Y+H98W", "replicates, log10 nM": "nd, 2.79, nd"}